# Results as given in ChEMBL document CHEMBL1133514, “Activation mechanisms of nucleoside phosphoramidate prodrugs” (J Med Chem, 2000).
# Tests used:
# [1] = Half-life period for the compound was determined; type: ADME
# In short: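 Compound (0.015-0.076 mmol) dissolved in about 90 µL CH3CN or THF, then diluted to 0.50 mL with 0.1-0.4 M cacodylate or acetate buffer; pH 7.4 target (7.0-8.0 accepted), 37 °C. Monitored by 31P NMR every 2.5 min for 30 min, then every 5 min; relative peak areas fitted by least squares to first-order kinetics to give rate constants and t1/2.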
# [2] = Rate constants determined using 31P NMR Kinetics experiments at 37 degrees Centigrade
smiles,measurement,setting,value
CCN(CC)CC.CN(CCBr)P(=O)(O)OCC1CCCO1 (configuration not stated),T1/2,[1],2 min
same,K,[2],0.34 min⁻¹
